# Measured affinities in a library of Ab-14 heavy chain variants

Reference: Engelhart et al. 2022, doi:10.1038/s41597-022-01779-4. File: FLAb, binding data.

Antigen: PDVDLGDISGINAS, a 14-residue peptide of the SARS-CoV-2 spike HR2 region.

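The parent was found by panning a naive human phage display library on the peptide. The library (AAYL49) carries one to three amino acid substitutions per variant, with no insertions or deletions. The scFvs were displayed on barcoded MATa yeast, the peptide on MATalpha yeast. After mating in shaken culture at 30 °C for 16 h, diploids were selected and their barcode pairs sequenced. Scores were corrected for input abundance and mapped to Kd with protein pairs of known affinity run in the same pool. Each pool was mated in three replicate cultures.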

Parent: Ab-14, a human scFv built as VH, a 15-residue (Gly4Ser)3 linker, VL. Only the CDRs of the heavy chain vary.
VH: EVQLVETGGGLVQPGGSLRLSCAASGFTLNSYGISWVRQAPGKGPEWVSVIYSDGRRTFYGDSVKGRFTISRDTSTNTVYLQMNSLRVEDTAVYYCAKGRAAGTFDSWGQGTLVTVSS
VL: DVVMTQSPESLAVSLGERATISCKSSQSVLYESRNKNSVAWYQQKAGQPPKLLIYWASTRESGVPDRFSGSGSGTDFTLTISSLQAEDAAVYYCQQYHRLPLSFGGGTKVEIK

The parent's heavy chain CDRs are GFTLNSYGIS, VIYSDGRRTFYGDSVK, GRAAGTFDS; each variant's own CDRs replace them letter for letter.
All variants listed here change D62 of the VH, counted from its first residue.
Kd is apparent (estimated from mating counts) and averaged on the log scale over replicates with a signal. Smaller is tighter.
"nd" means that the variant was in the library but no mating with the target was seen in any replicate; the authors take this as a sign of poor binding, and no number exists.
Entries are sorted by rising average, undetected variants last.
Three control strains display no target. For library AAYL49, 15% of the pairings with them gave a signal, with a median of 11 µM and one signal in twenty below 680 nM, so weak values seen in few replicates may be background.

CDR-H1	CDR-H2	CDR-H3	Kd (apparent)	seen in
GFTLNSYGIS	VIYSDGRRTFYGNSVK	GRAAGTAES	8.9 nM	3 of 3
GFTLNSYGIS	VIYSDGRRTFYGESVK	GRFAGTMDS	22 nM	3 of 3
GFTLNSYGIS	VIYSDGNRTFYGNSVK	GRAAGTFDS	28 nM	3 of 3
GFTLNSYGIS	VIYSDGRRTFYGTSVK	GRAAGTFDS	63 nM	3 of 3
GFTLNSYGIS	VIYSDGRRTFYGASVW	GRAAGTFDY	140 nM	3 of 3
GFTLNSYGIS	VIYSDGRRCFYGNSVK	GNAAGTFDS	140 nM	3 of 3
GFTLNDYGIS	VIYSDGRRTFYGHHVK	GRAAGTFDS	150 nM	3 of 3
GFTLNSYGIS	VIYSDGRRTFYGKSVK	GRAAGTFDS	250 nM	3 of 3
AFTLNSYGIS	VIYSDGRRTFYGPSVK	GRAAGTGDS	590 nM	3 of 3
GFTLNSHGIS	VIYSDGRRTFYGERVK	GRAAGTFDS	600 nM	2 of 3
GFTLNSYPIS	VLYSDGRRTFYGKSVK	GRAAGTFDS	1.0 µM	1 of 3
GFTLNSYGIS	VIYSDGRRTFYGESVK	GRAAQTWDS	1.1 µM	2 of 3
GFTLNSYGIS	VIYSDGRRTFYGYSVK	GRAAGTFDS	1.3 µM	2 of 3
GFTLNSEGIS	VIYSDGRRTFYGHSVK	GRAAATFDS	1.4 µM	3 of 3
GFTLNSYGIS	LIYSPGRRTFYGCSVK	GRAAGTFDS	2.0 µM	1 of 3
GFTLNSLGIS	VIYSDGRRTFYKQSVK	GRAAGTFDS	2.1 µM	2 of 3
GFTLNSYTID	VIYSDGRRTFYGWSVK	GRAAGTFDS	2.1 µM	1 of 3
GFTLNSYMIS	VIYSRGRRTFYGGSVK	GRAAGTFDS	2.3 µM	1 of 3
GFTLNSYGIS	VIYSDGRRTFYGLSVK	GRAAGTFTS	3.0 µM	1 of 3
GFTLNSEGIS	VIYSDGRRTFYGVSVR	GRAAGTFDS	3.5 µM	2 of 3
GFTLNSYGIS	VIYSDGRRTFYGCAVK	GRFAGTFDS	6.3 µM	3 of 3
GFTFNSYGIS	VIYSDGRRTFYGISVK	GRAAGTEDS	7.1 µM	2 of 3
GFTLNSYGIS	VIYSDGRDTFYGHSVK	GRAAGTFDS	7.9 µM	3 of 3
GFTLNSYGIS	VIYSDGRRTFYGKSVK	GRAAGTFFS	9.0 µM	1 of 3
GFTLNSYGIS	VIYKDGRRTFYGWSVK	GRAAGTFDS	15 µM	1 of 3
WFTLNSYGIS	VIYSDGRRTLYGASVK	GRAAGTFDS	22 µM	2 of 3
GFTLNSYGIS	VIYSDGSRTFYGVSVK	GRHAGTFDS	24 µM	1 of 3
GFTLNSYGIM	VIYSDGRATFYGISVK	GRAAGTFDS	38 µM	2 of 3
GFTLNSYGIS	VIYSDGRRTFYGFSVK	GRAAGTHDS	62 µM	2 of 3
GFTLNSYGIS	VHYSDGRRTFYGQSVK	GRAAGTFDS	66 µM	1 of 3
GFYTNSYGIS	VIYSDGRRTFYGQSVK	GRAAGTFDS	68 µM	2 of 3
GFTLNSYTIS	VIYSDGRRTFKGNSVK	GRAAGTFDS	69 µM	3 of 3
GFMLNSYGIS	VIYSDGSRTFYGLSVK	GRAAGTFDS	84 µM	1 of 3
GYTLNSYGIS	VIYSDGRRTFYGSSVK	GRAAGTNDS	230 µM	1 of 3
GFTLNSYGIS	VIPSDGQRTFYGWSVK	GRAAGTFDS	260 µM	1 of 3
GFTLNSYGIS	VIVSDGRRTFYGLSVK	GRAAGTRDS	260 µM	1 of 3
GFTLNSYGIS	VINSDGRRTFYPPSVK	GRAAGTFDS	nd	0 of 3
GFTLNSYGIS	VIYSDGRRTFYGASVK	GRWAGTFKS	nd	0 of 3
GFTLNSYGIS	VIYSDGRRTTYGRSVK	GRAAGHFDS	nd	0 of 3
GFTLNSYGIS	VLYSDGRRTFAGSSVK	GRAAGTFDS	nd	0 of 3
GFTLNSYGSS	IIYSDGRRTFYGLSVK	GRAAGTFDS	nd	0 of 3
GFTLNSYGIS	VIYSDGCRTFRGPSVK	GRAAGTFDS	nd	0 of 3
GFTLNQYGIS	VIYSDGRRTFYGISVK	GRAAGEFDS	nd	0 of 3
GCTPNSYGIS	VIYSDGRRTFYGQSVK	GRAAGTFDS	nd	0 of 3
GFTLNSYGIV	VIYSDGRRTFYGCSVD	GRAAGTFDS	nd	0 of 3
GFTLNSYGIS	VIYSDGLRTFYGVSVK	GRAAGTFPS	nd	0 of 3
GFTLNSYGPS	VIYSDGRRTFYGGSVS	GRAAGTFDS	nd	0 of 3
GFTLNSYGIS	VIYSDLRRTFYGQSVK	GRAAGTFDS	nd	0 of 3
GFTLNSYGIS	VIYSDGRRTFYGISVF	GRAAGTFDS	nd	0 of 3
GFTLNSYGIS	VIYSDGRRTFYGWSAK	DRAAGTFDS	nd	0 of 3
GFTLNSYGIS	VIYSDNRRTFYGCSVK	GRPAGTFDS	nd	0 of 3
GFTLNSQGIS	VIYSDGRRDFYGISVK	GRAAGTFDS	nd	0 of 3
GFTLNSYGIS	VIYSDGRRTFYRSSRK	GRAAGTFDS	nd	0 of 3
GFTLNSYGIN	VIDSDGRRTFYGPSVK	GRAAGTFDS	nd	0 of 3
GFTLNSYGIS	VIYSDGRRTTYGRSVK	GRAAETFDS	nd	0 of 3
GFTLNSYGID	VIYSDGRRKFYGWSVK	GRAAGTFDS	nd	0 of 3
GNTLNSYGIS	VIYSDQRRTFYGKSVK	GRAAGTFDS	nd	0 of 3
GFTLNSYGIS	VIYTDGRRTFYGLSVK	GRAAGTFFS	nd	0 of 3
GSTLNSYGIS	VIYSDGVRTFYGSSVK	GRAAGTFDS	nd	0 of 3
GFTLNSYGIS	VIYSDGRRTFYGGSVK	GRCAGYFDS	nd	0 of 3
GFTLNSNGIS	VIYSDGRRTFYGFSVK	GPAAGTFDS	nd	0 of 3
GFTLNLYGIS	VIYYDGRRTFYGLSVK	GRAAGTFDS	nd	0 of 3
GFTLNSYGIS	VIYSDGRRTFYGKSVK	KRFAGTFDS	nd	0 of 3
GFTLNSYGIS	VIYSDERRTFYGASVK	GRACGTFDS	nd	0 of 3
GFTLNSYGIS	VIRSDGRRTFYGASVK	GRAAGTFDS	nd	0 of 3

Excerpt, the final 6 entries:

| CDR-H1 | CDR-H2 | CDR-H3 | Kd (apparent) | seen in |
|---|---|---|---|---|
| GFTLNSYGIS | VIYSDGRRTFYGGSVK | GRCAGYFDS | nd | 0 of 3 |
| GFTLNSNGIS | VIYSDGRRTFYGFSVK | GPAAGTFDS | nd | 0 of 3 |
| GFTLNLYGIS | VIYYDGRRTFYGLSVK | GRAAGTFDS | nd | 0 of 3 |
| GFTLNSYGIS | VIYSDGRRTFYGKSVK | KRFAGTFDS | nd | 0 of 3 |
| GFTLNSYGIS | VIYSDERRTFYGASVK | GRACGTFDS | nd | 0 of 3 |
| GFTLNSYGIS | VIRSDGRRTFYGASVK | GRAAGTFDS | nd | 0 of 3 |

Parent in this assay: reference entry 4.4 nM, copy in this library 13 µM (one replicate of three).